The text below walks through data of US20210252159A1, “CONJUGATES OF CARTILAGE-HOMING PEPTIDES” (priority 2018, published 2021).

The data set in a line: Rat CIA biodistribution study (QWBA). The class given is in vivo. The conditions noted are these: CIA rats; for signal in cartilage (whole body autoradiography): 400 nmol IV, 1 hr, 3 hrs, 24 hrs. How it is done: 50 uCi, 400 nmol of each compound was given intravenously (IV) through the tail vein and allowed to circulate 1 hour, 3 hours, or 24 hours. Rats were euthanized by CO2 asphyxiation, shaved, and frozen in dry ice chilled hexane. QWBA was performed and quantified as described.
Frozen carcasses were allowed to off gas hexane overnight at −20° and then embedded in chilled 2% carboxymethylcellulose (Sigma Aldrich) and sectioned sagittally at a thickness of 40 μm on an H/I Bright 8250 Cryostat (Hacker Instruments). Radioactive control guides were drilled into each block to verify even cutting depth along the length of the section. The radioactive guide consisted of ^14C-Glycine (American Radiolabeled Chemicals, “ARC”) at 0.5 uCi/ml in 0.5% BSA (Sigma Aldrich) in PBS. Sections were collected onto 4-inch wide tape (Scotch 821, ULINE) at 2-4 depths to sample approximately 30 tissues with particular focus on the knees and spine. […]
Quantification of the radioactivity detected in WBA samples was evaluated by measuring the pixel density/mm^2 (“SI”: Signal Intensity/Area−background) using AIDA Image Analyzer v 5.1 Whole Body Autoradiography Professional software (Raytest). […] For quantification, all visible knee or IVD (intervertebral disc) tissues for one rodent across all collected sections were measured and averaged together to generate one knee or IVD value per animal. […] To collect quantified values for other tissues, ROIs were drawn around blood in the heart ventricle, spinotrapezius muscle, the liver, or the kidney (including cortex and medulla) in all sections in which the tissue was observed and then averaged to yield one value per tissue per animal.
Data were presented as nmol of compound per gram of tissue. The commercial standard strips co-exposed with each WBA sample set were calibrated so that a known amount of radioactive counts per minute (CPM) per gram of tissue, determined by liquid scintillation counting (LSC), corresponded to the measured WBA SI at 11 standard strip concentration data points. […]

For “^14C-Cys-Dexamethasone [reference compound]”, the “signal in cartilage (whole body autoradiography)” value was “minimal signal”. Further, the “accumulation in other tissues of the body” value (400 nmol IV, 1, 3, 24 hrs, except liver and kidney) is “not detected at significant levels”. Where the note is “listed as 14C-Cys Dex”, the “signal in cartilage (whole body autoradiography)” value is “no visually detectable signal”.
